Consider one molecule from paper PMC11905058, “Novel Leech Antimicrobial Peptides, Hirunipins: Real‐Time 3D Monitoring of Antimicrobial and Antibiofilm Mechanisms Using Optical Diffraction Tomography” (Advanced Science, 2025).

Common to all, as to type: cell-based
For one assay, the system named is MDRAB (329-53). To be noted: clinically isolated multidrug-resistant Acinetobacter baumannii; broth microdilution. How it is done: (§1) The MICs of the peptides were measured by the Clinical and Laboratory Standards Institute (CLSI) broth microdilution method, as outlined in a previous study.^[ [26], [27] ^]
(§2) Microbial Strains and Cell Lines: Multiple bacterial strains were used in this study. Standard stains included Escherichia coli (KCTC 1682), Pseudomonas aeruginosa (KCTC 1637), Staphylococcus aureus (KCTC1621) and Staphylococcus epidermidis (KCTC 1917) supplied from the Korean Collection for Type Cultures (KCTC) of the Korea Research Institute of Bioscience and Biotechnology (KRIBB). Clinically isolated multidrug-resistant bacteria included multidrug-resistant Klebsiella pneumonia (MDRKP 328-83), multidrug-resistant Acinetobacter baumannii (MDRAB 329-53), multidrug-resistant Pseudomonas aeruginosa (MDRPA 314-69), multidrug-resistant Enterobacter cloacae (MDRE 328-84) and multidrug-resistant Escherichia coli (MDREC 329-66) provided from Hospital of Chosun University, Korea. All bacterial strains were stored in 20% glycerol at −80 °C. For the subsequent experiments, the bacteria were recovered and cultured in the corresponding enrichment broth at 37 °C. The mouse macrophage RAW264.7, mouse fibroblast NIH-3T3 and human keratinocyte HaCat cells were cultured in Dulbecco’s modified Eagle’s medium (DMEM), supplemented with 10% (v/v) of fetal bovine serum (Sigma-Aldrich), 100 U/mL of penicillin and 0.1 mg/mL of streptomycin, at 37 °C in the presence of 5% CO2
(§3) Minimal Inhibitory Concentrations (MICs): Bacteria were grown to mid-logarithmic phase and diluted in Mueller-Hinton broth (MHB) (Difco). The bacterial suspension (1×10^6 CFU/well) was added to a 96-well microtiter plate along with a two-fold serial dilution of samples. The plate was incubated at 37 °C for 24 hours and the bacterial growth inhibition was assessed by measuring the optical density using an ELISA plate reader. The minimum inhibitory concentration (MIC) was defined as the lowest concentration of samples that prevented visible bacterial growth.
(In broth dilution the organism is exposed to a series of concentrations in liquid medium.)

The subject of a further assay is MDREC (329-66). To be noted: clinically isolated multidrug-resistant Escherichia coli; broth microdilution. How it is done:
as §1, §2, §3

The next assay deals with MDRKP (328-83). To be noted: clinically isolated multidrug-resistant Klebsiella pneumonia; broth microdilution. How it is done:
as §1, §2, §3

The next assay relates to MDRPA (314-69). The following applies: clinically isolated multidrug-resistant Pseudomonas aeruginosa; broth microdilution. How it is done:
as §1, §2, §3

Structures are written as SMILES. ≈ marks a conversion by molar mass, not a printed value.

Consider `CC[C@H](C)[C@H](NC(=O)CN)C(=O)NCC(=O)N[C@@H](C)C(=O)N[C@H](C(=O)N[C@@H](CC(C)C)C(=O)N[C@@H](CCCCN)C(=O)N[C@H](C(=O)N[C@@H](CC(C)C)C(=O)N[C@H](C(=O)N[C@H](C(=O)NCC(=O)N[C@@H](CC(C)C)C(=O)N1CCC[C@H]1C(=O)N[C@@H](C)C(=O)N[C@@H](CC(C)C)C(=O)N[C@H](C(=O)N[C@@H](CO)C(=O)N[C@@H](Cc1c[nH]c2ccccc12)C(=O)N[C@H](C(=O)N[C@@H](CCCCN)C(=O)N[C@@H](CCCNC(=N)N)C(=O)N[C@@H](CCCCN)C(=O)N[C@@H](CCCNC(=N)N)C(=O)N[C@@H](CCC(N)=O)C(=O)N[C@@H](CCC(N)=O)C(N)=O)[C@@H](C)CC)[C@@H](C)CC)[C@@H](C)O)[C@@H](C)O)C(C)C)C(C)C` [Melittin, reference compound], for which the “Minimum inhibitory concentrations, MDRAB (329-53)” value in the assay on MDRAB (329-53) was 32 µg/mL (≈ 11.2 µM). The “Minimum inhibitory concentrations, MDREC (329-66)” value with MDREC (329-66) stood at 32 µg/mL (≈ 11.2 µM). Besides, in the assay on MDRKP (328-83), the “Minimum inhibitory concentrations, MDRKP (328-83)” value stood at 128 µg/mL (≈ 45 µM). Also, in the assay with MDRPA (314-69), the “Minimum inhibitory concentrations, MDRPA (314-69)” value turned out to be 32 µg/mL (≈ 11.2 µM).
